Measurements reported in patent publication USRE49825E1, “Piperidinyl nociceptin receptor compounds” (Astraea Therapeutics, LLC, priority 2015, dated 2024).

Columns and labels:
mu opioid receptor = mu opioid receptor (Homo sapiens, UniProt P35372); assay: Radioligand binding assay, [3H]DAMGO, membranes of CHO cells transfected with human mu opioid receptor
kappa opioid receptor = kappa opioid receptor (Homo sapiens, UniProt P41145); assay: Radioligand binding assay, [3H]U69593, membranes of CHO cells transfected with human kappa opioid receptor
[1] = molecular target: nociceptin (NOP) receptor (Homo sapiens, UniProt P41146); assay: Radioligand binding assay, [3H]N/OFQ, membranes of CHO cells transfected with human NOP receptor
[2] = read-out: Receptor Binding Ki (nM) μ, Compounds of Formula (II), CHO cell membranes
[3] = read-out: Receptor Binding Ki (nM) κ, Compounds of Formula (II), CHO cell membranes
[4] = read-out: Receptor Binding Ki (nM) NOP, Compounds of Formula (II), CHO cell membranes
[5] = read-out: Receptor Binding Ki (nM) μ, Compounds of Formula (III), CHO cell membranes
[6] = read-out: Receptor Binding Ki (nM) κ, Compounds of Formula (III), CHO cell membranes
[7] = read-out: Receptor Binding Ki (nM) NOP, Compounds of Formula (III), CHO cell membranes

SMILES | Ki (mu opioid receptor; [2]) [nM] | Ki (kappa opioid receptor; [3]) [nM] | Ki [1, 4] [nM] | Ki (mu opioid receptor; [5]) [nM] | Ki (kappa opioid receptor; [6]) [nM] | Ki [1, 7] [nM]
CC(C)[C@H]1CC[C@@H](N2CCC(n3c(CO)c(C=NO)c4ccccc43)CC2)CC1 | < 15 | 150 to 5000 | < 15 | – | – | –
CC(C)[C@H]1CC[C@@H](N2CCC(n3c(CN)cc4cc(F)ccc43)CC2)CC1 | < 15 | 15 to 150 | < 15 | – | – | –
CC(C)[C@H]1CC[C@@H](N2CCC(n3c(CO)c(CO)c4ccccc43)CC2)CC1 | 15 to 150 | 15 to 150 | < 15 | – | – | –
CON=Cc1cc2ccccc2n1C1CCN([C@H]2CC[C@@H](C(C)C)CC2)CC1 | 15 to 150 | 150 to 5000 | < 15 | – | – | –
CC(C)[C@H]1CC[C@@H](N2CCC(n3cc(CN=[N+]=[N-])c4ccccc43)CC2)CC1 (relative stereo) | 150 to 5000 | 150 to 5000 | 15 to 150 | – | – | –
CC(C)[C@H]1CC[C@@H](N2CCC(n3c(COC(=O)C(C)(C)C)cc4ccccc43)CC2)CC1 | 15 to 150 | 150 to 5000 | < 15 | – | – | –
CC(C)[C@H]1CC[C@@H](N2CCC(n3cc(CCN)c4cc(F)ccc43)CC2)CC1 | 15 to 150 | 150 to 5000 | < 15 | – | – | –
CC1(C)CCC(N2CCC(n3c(CO)cc4ccccc43)CC2)CC1 | 15 to 150 | 15 to 150 | < 15 | – | – | –
CC(C)[C@H]1CC[C@@H](N2CCC(n3cc(/C=C/C#N)c4ccccc43)CC2)CC1 | 150 to 5000 | 150 to 5000 | 15 to 150 | – | – | –
CC(C)[C@H]1CC[C@@H](N2CCC(N3C(=O)C(CC(=O)O)c4ccccc43)CC2)CC1 (stereo partly drawn) | – | – | – | 150 to 5000 | > 5000 | 15 to 150
CC(=O)NCc1c(CO)c2ccccc2n1C1CCN([C@H]2CC[C@@H](C(C)C)CC2)CC1 (relative stereo) | 15 to 150 | 150 to 5000 | < 15 | – | – | –
CC(C)C1CCC(N2CCC(n3c(/C=N/O)cc4ccccc43)CC2)CC1 (stereo not drawn) | 15 to 150 | 15 to 150 | < 15 | – | – | –
CC(C)[C@H]1CC[C@@H](N2CCC(N3C(=O)/C(=N\OCCO)c4ccccc43)CC2)CC1 | – | – | – | 150 to 5000 | 15 to 150 | 15 to 150
Cc1ccc(S(=O)(=O)NCc2cc3ccccc3n2C2CCN([C@H]3CC[C@@H](C(C)C)CC3)CC2)cc1 (relative stereo) | < 15 | 15 to 150 | 15 to 150 | – | – | –
CC(C)[C@H]1CC[C@@H](N2CCC(n3c(CN(C)C(=O)OCc4ccccc4)c(CO)c4ccccc43)CC2)CC1 | < 15 | 150 to 5000 | < 15 | – | – | –
CC(C)[C@H]1CC[C@@H](N2CCC(n3c(CO)c(C(N)=O)c4ccccc43)CC2)CC1 (relative stereo) | 15 to 150 | 150 to 5000 | < 15 | – | – | –
CC(C)[C@H]1CC[C@@H](N2CCC(n3c(CN(CC4CC4)CC4CC4)cc4ccccc43)CC2)CC1 | 15 to 150 | 15 to 150 | 15 to 150 | – | – | –
CC(C)[C@H]1CC[C@@H](N2CCC(n3cc(CCNC(N)=S)c4ccccc43)CC2)CC1 | 150 to 5000 | 15 to 150 | 15 to 150 | – | – | –
CC(C)[C@H]1CC[C@@H](N2CCC(n3cc(CCCN)c4ccccc43)CC2)CC1 | 15 to 150 | 150 to 5000 | 15 to 150 | – | – | –
CCOC(=O)NCc1c(CO)c2ccccc2n1C1CCN([C@H]2CC[C@@H](C(C)C)CC2)CC1 (relative stereo) | < 15 | 150 to 5000 | < 15 | – | – | –
CC(C)[C@H]1CC[C@@H](N2CCC(n3cc(CCNC(N)=O)c4ccccc43)CC2)CC1 | 150 to 5000 | 150 to 5000 | 15 to 150 | – | – | –
Cc1ccc(S(=O)(=O)NCc2c(/C=N/O)c3ccccc3n2C2CCN(C3CCC(C(C)C)CC3)CC2)cc1 (stereo not drawn) | < 15 | 15 to 150 | < 15 | – | – | –
CC(C)[C@H]1CC[C@@H](N2CCC(n3cc(CCCN)c4cc(Cl)ccc43)CC2)CC1 | 15 to 150 | 150 to 5000 | 15 to 150 | – | – | –

Where two headings read alike, the source gives them in different places.
